For the test, the target named is T1, acidic fibroblast growth factor (aFGF) (Homo sapiens, UniProt P05230).
T1 construct: host or cells: E. coli
The test can be described thus: Microplate thermal shift assay for ligands binding to aFGF, turbidity signal. Particulars: relative to aFGF alone (317.15 °K). From the text: The second therapeutic receptor tested in the microplate thermal shift assay was acidic fibroblast growth factor (aFGF), a growth factor that plays a key role in angiogenesis (Folkman, J. et al., J. Biol. Chem. 267:1.0931-10934 (1992)). A synthetic gene for this protein was purchased from R&D Systems (Minneapolis, Minn.), and was cloned and expressed in E. coli using methods similar to those described for basic fibroblast growth factor (bFGF) (Thompson, L. D. et al., Biochemistry 33:3831-3840 (1994); Pantoliano, M. W. et al., Biochemistry 33:10229-10248 (1994); Springer, B. A. et al., J. Biol. Chem. 269:26879-26884 (1994)). Recombinant aFGF was then purified by heparin-sepharose affinity chromatography as described (Thompson, L. D. et al., Biochemistry 33:3831-3840 (1994)). aFGF is also known to bind heparin/heparan, which is a cofactor for mitogenic activity. […] A microplate thermal assay of these compounds was set up in a way similar to that described above for human α-thrombin. […] The affinity constants covered a fairly broad range of binding affinities, with pentosan PSO4 showing the highest affinity.

Protein sequences, listed by entry. Tags and fused reporters are not part of them.
UniProt P05230, whole entry, species assumed: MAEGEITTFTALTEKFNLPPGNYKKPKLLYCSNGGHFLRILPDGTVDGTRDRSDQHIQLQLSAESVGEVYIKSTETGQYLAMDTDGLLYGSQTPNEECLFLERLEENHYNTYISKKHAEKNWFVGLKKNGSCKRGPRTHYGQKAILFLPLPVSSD

As for `N[C@@H](CCC(=O)O)C(=O)N[C@@H](CCC(=O)O)C(=O)N[C@@H](CCC(=O)O)C(=O)N[C@@H](CCC(=O)O)C(=O)N[C@@H](CCC(=O)O)C(=O)O` [EEEEE], the ΔTm came out at 0.0 °K.

The values are drawn from patent US6569631B1, “Microplate thermal shift assay for ligand development using 5-(4″dimethylaminophenyl)-2-(4′-phenyl)oxazole derivative fluorescent dyes” (3-Dimensional Pharmaceuticals, Inc., priority 1998, dated 2003).
